Assay outcomes: PubChem, National Center for Advancing Translational Sciences (NCATS)
miR-21 reporter: raises the signal of a miR-21 reporter | HeLa miR-21 FLuc reporter, luciferase, 48 h | Potency, µM (highest dose often 38.3 µM), inactives show at the highest dose reporter change, positive = more light | 340,000 tested, under 10 active | AID 2288; active = well fitted rising curve with a large enough effect; inconclusive = small, poorly fitted or top-dose-only effect; inactive = no such curve, though single readings can be large or run the other way;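 note: % of control where 0% means no effect; miR-21 action dims this reporter so a rising signal means less miR-21 action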
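Compounds were titrated across several concentrations (up to approximately 40 uM) and incubated 48 hours with HeLa miR-21-FLuc reporter cells (miR-21 target sequence downstream of FLuc, endogenous miR-21). Readout was firefly luciferase luminescence after lytic detection reagent.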
GALK inhibitor: inhibitors of human galactokinase | actives 0.007% (n = 270,000) | Purified GALK, Kinase-Glo residual ATP luminescence | Potency, µM (titrated, usually from 57.5 µM), inactives show at the highest dose activity change, negative = inhibition, hits mostly inhibitors | AID 1868 | P51570; further: potency means the concentration at half of the fitted maximal effect; on the % scale 0 is the no-effect control and ±100 the full control effect
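GALK at 5 nM final was combined with compound, 35 uM ATP and 100 uM galactose in HEPES pH8.0 with MgCl2 and DTT. The reaction ran one hour at room temperature before luminescent ATP detection.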
rTrxR1 inhibitor: blocks rat thioredoxin reductase 1 | recombinant rTrxR1, NADPH fluorescence consumption, selenite substrate | O89049 | actives 1% (n = 390,000) | Potency, µM (highest dose often 114 µM), without a hit: at the highest dose activity change, negative = inhibition, actives largely listed as inhibitors; further: potency means the concentration at half of the fitted maximal effect; on the % scale 0 is the no-effect control and ±100 the full control effect; nearly all actives have a fitted effect of over 65% in size
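Rat TrxR1 (90 nM in the dispensed reagent) was pre-reduced with 400 uM NADPH for 5 min at room temperature, then incubated with compound for 15 min. After 400 uM selenite was added, NADPH fluorescence (Ex 340/Em 450 nm) was followed for 8 min.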
TrxR1 substrate: is turned over as a substrate by rat TrxR1; purified TrxR1 substrate turnover, NADPH consumption readout; Potency, µM (series often up to 114 µM), without a hit: top-dose activity change, negative = substrate turnover; actives 0.01% (n = 390,000); further: potency means the concentration at half of the fitted maximal effect; on the % scale 0 is the no-effect control and ±100 the full control effect; nearly all actives have a fitted effect of over 50% in size
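Rat TrxR1, dispensed at 90 nM, was prereduced with 400 uM NADPH (final) for 5 min at ~22 deg C, then incubated with compound 15 min before 400 uM selenite. A first-read NADPH fluorescence drop versus no-compound background flagged substrates.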
PINK1 modulator: PINK1 expression modulation | PINK1 immunofluorescence, high-content cytometry, 24 h | Potency, µM (titrated, usually from 76.6 µM), for the others: top-dose activation (PINK1 increase), hits mostly activators | actives 0.2% (n = 410,000) | AID 624263; active means well fitted activation curve with a large enough effect; inconclusive means small, poorly fitted or top-dose-only effect; cell line not stated here; further: potency means the concentration at half of the fitted maximal effect; % of control where 0% means no effect; nearly all actives have a fitted effect of over 65% in size
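Measures PINK1 amount and localization on or inside mitochondria by immunofluorescence. Stable cells get compounds at 5 concentrations for 24 hours before fixation and staining; CCCP controls included.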
Numbers without * were called inactive; u = inconclusive; x = no result given; ! = a repeat was not active; [ ] = another dose, or the depositor's remark. Sampled rows, rich in hits. Any-hit rate of the full collection: about 1.1%. Unless noted, the call rests on the fitted dose curve; in most records, active means well fitted curve in the direction sought with a large enough effect; inconclusive means small, poorly fitted or top-dose-only effect, or another doubt; inactive means no such curve, though single readings can be large; an effect the other way counts as inactive or inconclusive.

Values run as follows: miR-21 reporter | GALK inhibitor | rTrxR1 inhibitor | TrxR1 substrate | PINK1 modulator
1) Cc1ccccc1-c1nnc2c3ccccc3c(C)nn12
    -37.8% | 0.0% | 11.1% | 5.4% | -3.0%
2) COc1ccccc1-c1ccnc(-n2ncc(C(=O)NCc3ccncc3)c2C)n1
    x | x | x | x | 5.9%
3) c1ccc(-c2onc(-c3ccco3)c2-c2ccc3[nH]ccc3c2)cc1
    4.7% | x | 28.2µM*! | 12.2%[57.1 µM] | 6.6%
4) COc1cc2c(cc1OC)C(COc1cc(C)cc(C)c1)N(C(=O)C(C)(C)C)CC2 (stereo not drawn)
    5.5% | x | 7.6%[57.1 µM] | 1.0%[57.1 µM] | -4.3%
5) COc1ccc(OC)c(C2C(C(=O)c3ccc(C)o3)=C(O)C(=O)N2CCN2CCOCC2)c1 (stereo not drawn)
    2.4% | 8.0% | u | -2.2% | 2.5%
6) CCCOc1ccc(C2C(C(=O)c3ccc(C)o3)=C(O)C(=O)N2CCN2CCOCC2)cc1OC (stereo not drawn)
    -1.5% | 0.4% | 50.1µM* | -6.1% | -0.7%
7) CC[N+](C)(C)c1ccc(/C=C/c2ccnc3ccccc23)cc1
    x | x | -3.3% | -2.7% | x
8) Cc1nc(CNC(=O)CC2C(=O)NCCN2Cc2ccoc2)nc2c1CCCC2 (stereo not drawn)
    0.5% | 3.9% | 50.1µM* | 5.1% | -1.2%
9) C=CCOc1ccc2cccc(/C=N/NC(=O)c3cc4cc([N+](=O)[O-])ccc4s3)c2c1
    -6.8% | -1.8% | -8.0%[57.1 µM] | 0.5%[57.1 µM] | 20µM*
10) N#CC(C#N)=C1C=CC=CN1/C(=C\c1ccccc1)C(=O)c1cccs1
    -33.5% | x | 0.447µM* | 9.3% | 1.2%
11) N#CC(C#N)=C1C=CC=CN1/C(=C\c1ccccc1Cl)C(=O)c1ccccc1
    u | x | u | -12.4% | -3.8%
12) CCOc1ccc2[nH]c(=O)c(C(c3nnnn3Cc3ccco3)N3CCCC(C)C3)cc2c1 (stereo not drawn)
    0.0% | -2.0% | 12.6µM* | 17.1%[57.1 µM] | 0.3%
13) COc1ccc2[nH]c(=O)c(CN(Cc3nnnn3Cc3ccco3)C3CCCCC3)cc2c1
    -8.4% | -3.8% | 17.8µM* | 0.9% | 0.9%
14) CC(=O)Nc1cccc(NC(=S)Nc2cccc(Cl)c2Cl)c1
    -0.9% | -1.6% | 31.6µM* | 0.5%[57.1 µM] | 0.2%
15) Brc1ccc(C=C2C=c3ccccc3=C2)cc1
    x | x | 35.5µM* | -3.3% | 0.8%
16) Cc1cc(C)nc(Sc2ncnc(N)c2[N+](=O)[O-])n1
    6.0% | 6.0% | 11.2µM* | 5.8%[57.1 µM] | 6.2%
17) Cc1cccc(Nc2ncnc(N)c2[N+](=O)[O-])n1
    25.7% | 6.7% | 13.9% | -1.5% | -1.5%
18) Cc1cc(C(=O)N/N=C/c2cc(Br)c(Br)o2)n[nH]1
    -30.3% | -2.5% | 35.5µM* | -1.2% | 2.2%
19) Cc1oc(-c2ccccc2NC(=O)c2ccccc2)nc1CNC(=O)c1c(-c2ccccc2)noc1C
    x | x | x | x | 1.2%
20) O=[N+]([O-])c1ccc(Nc2ccccc2)c2nonc12
    -0.9% | x | -14.9% | -8.7% | 20.7%
21) O=[N+]([O-])c1ccc(Sc2cccc[n+]2[O-])c2nonc12
    u | 1.6% | 1.58µM* | -1.2%[57.1 µM] | 8.7%
22) O=C(NCc1ccccc1)c1nn(-c2ccccc2)nc1CO
    26.8% | x | 17.4% | 2.0% | -0.7%
23) Cc1cc(C)c2c(=O)cc(CSCC(=O)Nc3ccccc3Cl)[nH]c2c1
    0.9% | x | 5.4%[57.1 µM] | 0.4%[57.1 µM] | -0.7%
24) CO/N=C/C(C#N)c1ncc(C(F)(F)F)cc1Cl (stereo not drawn)
    5.4% | -2.4% | -8.4% | 0.6% | 12.6µM*
25) COC(=O)C1CCN(C2=C(NS(=O)(=O)c3ccc(Cl)cc3)C(=O)c3ccccc3C2=O)CC1
    -5.4% | -1.4% | -18.2% | -3.9% | -0.1%
26) NC(=O)C1CCN(C2=C(NS(=O)(=O)c3ccc(Cl)cc3)C(=O)c3ccccc3C2=O)CC1
    9.0% | 1.2% | 20µM* | -2.2% | 0.3%
27) Cc1cc(C)c(NC(=O)C(=O)NCC(c2cccnc2)N2CCN(c3ccccc3F)CC2)c(C)c1 (stereo not drawn)
    3.6% | x | 7.7% | 3.3%[11.4 µM] | 5.0%
28) O=c1c(Br)ccc(Br)cc1Br
    x | x | 0.199µM* | 13.2%[11.4 µM] | 3.5%
29) O=C1CN(S(=O)(=O)c2cc(Br)ccc2Br)CCN1
    x | x | 13.2% | 0.5% | 1.9%
30) N#CC(C#N)=Cc1ccc(OCC(=O)N2CCOCC2)cc1
    0.4% | 4.1% | 15.8µM* | -4.9% | 1.3%

One compound at a time (already shown). Screens in order: miR-21 reporter	GALK inhibitor	rTrxR1 inhibitor	TrxR1 substrate	PINK1 modulator
Listed for C=CCOc1ccc2cccc(/C=N/NC(=O)c3cc4cc([N+](=O)[O-])ccc4s3)c2c1 → -6.8%	-1.8%	-8.0%[57.1 µM]	0.5%[57.1 µM]	20µM*
Listed for COc1ccc(OC)c(C2C(C(=O)c3ccc(C)o3)=C(O)C(=O)N2CCN2CCOCC2)c1 (stereo not drawn) → 2.4%	8.0%	u	-2.2%	2.5%
Listed for Cc1cc(C)c(NC(=O)C(=O)NCC(c2cccnc2)N2CCN(c3ccccc3F)CC2)c(C)c1 (stereo not drawn) → 3.6%	x	7.7%	3.3%[11.4 µM]	5.0%
Listed for Cc1cc(C)c2c(=O)cc(CSCC(=O)Nc3ccccc3Cl)[nH]c2c1 → 0.9%	x	5.4%[57.1 µM]	0.4%[57.1 µM]	-0.7%

Additional records.
Values run as follows: miR-21 reporter | GALK inhibitor | rTrxR1 inhibitor | TrxR1 substrate | PINK1 modulator
31) CC(=O)N1CCOc2cc(S(=O)(=O)NCc3ccc(C)cc3)c(C)cc21
    8.0% | x | 12.3% | -2.4% | -1.8%
32) COc1ccc(CN2CCOc3ccc(CN4CCCCC4CO)cc3C2)c(OC)c1 (stereo not drawn)
    x | x | x | x | -1.1%
33) Cc1ccc(O)c(CP(=O)(c2ccccc2)c2ccccc2)c1
    -1.6% | 3.0% | 4.1% | 2.7% | 1.2%
34) CCNc1ccccc1CP(=O)(c1ccccc1)c1ccccc1O (stereo not drawn)
    -3.4% | 1.6% | 50.1µM* | -11.1% | -0.4%
35) O=C(C1COc2ccccc2O1)N1CCN(c2ccc([N+](=O)[O-])cc2)CC1 (stereo not drawn)
    x | x | 1.41µM* | -2.5% | 2.4%
36) CC1(C)CC(=O)C(C2C3=C(CC(C)(C)CC3=O)Oc3ccccc32)C(=O)C1 (stereo not drawn)
    1.6% | -1.2% | 56.2µM* | -6.4% | -1.1%
37) O=C(CCNc1cc(Cl)cc(Cl)c1)c1ccco1
    -9.6% | 2.0% | 8.91µM* | 2.2% | 0.2%
38) O=C(CCNc1ccc(F)cc1)c1ccco1
    -23.9% | 0.2% | 11.2µM* | -4.5% | -0.4%
39) COCC(C)NCc1cc2ccc(OC)cc2nc1N1CCN(c2ccc(F)cc2)CC1 (stereo not drawn)
    x | x | x | x | 3.6%
40) CCOc1cc(CNc2ccc(N3CCCCC3)cc2)cc(Br)c1OCC(=O)NC(C)(C)C
    -12.0% | 3.8% | -30.7% | -19.3% | 14.1µM*
41) CCOc1cc(CNc2ccc(N(C)C)cc2)cc(Br)c1OCC(=O)NC(C)(C)C
    -9.4% | 0.4% | u | -12.8% | 8.6%
42) CN(C)Cc1cc(C(C)(C)C)c(O)c(C(C)(C)C)c1
    -5.1% | -3.0% | 8.91µM* | 11.6%[57.1 µM] | -0.2%
43) CC(C)(CO)Cc1cc(C(C)(C)C)c(O)c(C(C)(C)C)c1
    x | x | u | u | 2.7%
44) CC(C)(C)c1cc(CN(CCO)CCO)cc(C(C)(C)C)c1O
    -8.2% | -1.6% | 3.55µM* | 0.0% | -1.6%[38.3 µM]
45) CN(C)Cc1cc(C(C)(C)C)cc(C(C)(C)C)c1O
    -0.9% | -1.7% | -11.7% | -6.7% | 0.1%
46) Cc1ccc(NC(=O)/C(C#N)=C/c2ccccc2Cl)cc1C
    -7.0% | x | -3.9% | -4.9% | 3.5%
47) CCOc1ccc(S(=O)(=O)NCC(c2cccs2)S(=O)(=O)c2ccc(C)cc2)cc1 (stereo not drawn)
    18.4% | x | 0.891µM* | 0.2%[57.1 µM] | 0.2%
48) Cc1cc(C)c(S(=O)(=O)NCC(c2ccco2)S(=O)(=O)c2ccccc2)c(C)c1 (stereo not drawn)
    u | x | 3.7%[57.1 µM] | 5.9%[57.1 µM] | 0.4%
49) Cc1cc(C)c(S(=O)(=O)NCC(c2cccs2)S(=O)(=O)c2ccccc2)c(C)c1 (stereo not drawn)
    -8.6% | x | 2.51µM* | 5.5%[57.1 µM] | 5.9%
